AlphaSeq binding of Ab-14 light chain variants to a spike HR2 peptide

Antigen: PDVDLGDISGINAS, a 14-residue peptide of the SARS-CoV-2 spike HR2 region.

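The parent was found by panning a naive human phage display library on the peptide. The library (AAYL50) carries one to three amino acid substitutions per variant, with no insertions or deletions. The assay is AlphaSeq: two haploid yeast populations carry antibody and antigen on their surface. Binding brings cells together so that they mate, and sequencing counts the barcode pairs among the diploids. The ratio of observed to expected reads was calibrated, replicate by replicate, on BCL2-family standards whose Kd was known from biolayer interferometry. There are three technical replicates.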

Each scFv is VH, three GGGGS repeats, VL, as in the parent Ab-14, and differs from it in the CDRs of the light chain only.
VH: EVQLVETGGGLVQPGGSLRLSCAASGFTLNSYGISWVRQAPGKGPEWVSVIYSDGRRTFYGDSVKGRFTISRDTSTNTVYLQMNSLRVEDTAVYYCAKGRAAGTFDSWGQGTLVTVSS
VL: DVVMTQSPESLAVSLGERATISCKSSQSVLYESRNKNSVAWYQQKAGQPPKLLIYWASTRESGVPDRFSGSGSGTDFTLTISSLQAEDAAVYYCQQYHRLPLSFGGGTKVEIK

Changes read parent residue, position, new residue, counted from the first residue of the VL shown. Every variant below is changed at S38 of the VL (sequential numbering). Scale: log10 of Kd in nM, estimated from mating counts; low values are strong binders. The mean shown is taken over the replicates in which the pair was detected. "nd" marks a missing value. The strain was present, yet no cells mated with the target were sequenced in that replicate, which points to weak or no binding.

For K24P/S38N/Y97K, the assay gave 5.30, 3.83, 5.87 (mean 5.00; controls 2 of 9).
For S26E/R34T/S38N, the assay gave nd, nd, nd (controls 0 of 9).
For N35S/S38G/P101A, the assay gave 1.81, 1.89, 2.67 (mean 2.13; controls 0 of 9).
For E32P/N37C/S38M, the assay gave nd, 4.08, nd (controls 0 of 9).
For S26P/S38M/W56V, the assay gave nd, nd, nd (controls 1 of 9).
For Q27E/S38A/Y97C, the assay gave 1.54, 1.60, 1.58 (mean 1.57; controls 2 of 9).
For S33K/S38R/L100D, the assay gave nd, nd, nd (controls 0 of 9).
For K36R/S38Q/L102Q, the assay gave 5.20, 5.58, 4.45 (mean 5.08; controls 2 of 9).
For S38I/Q96W/Y97Q, the assay gave 5.39, 4.58, 4.96 (mean 4.98; controls 8 of 9).
For K24D/S38C/A40N, the assay gave nd, nd, nd (controls 0 of 9).
For S33M/S38Y/R99I, the assay gave nd, 2.97, nd (controls 1 of 9).
For N35V/S38E/R60N, the assay gave nd, 3.66, 5.84 (mean 4.75; controls 1 of 9).
For Q27D/S38Q/L102K, the assay gave 4.02, 3.04, 3.40 (mean 3.49; controls 2 of 9).
For L30D/S38Y/P101M, the assay gave 2.63, 3.71, 3.08 (mean 3.14; controls 0 of 9).
For S26N/S38G, the assay gave 2.71, 2.29, 2.13 (mean 2.38; controls 1 of 9).
For S38L/A57K/S103Q, the assay gave nd, nd, nd (controls 0 of 9).
For S38T/W56F/S58R, the assay gave nd, nd, nd (controls 0 of 9).
For Q27K/N37M/S38I, the assay gave 4.41, nd, nd (controls 2 of 9).
For Q27N/S38Q, the assay gave 1.49, 1.48, 2.02 (mean 1.66; controls 0 of 9).
For S38R/L100M/P101S, the assay gave 5.06, 3.38, nd (mean 4.22; controls 3 of 9).
For S38F/Y97G/L102E, the assay gave nd, nd, nd (controls 0 of 9).
For S38P/T59F/L102Y, the assay gave 2.02, 1.92, 2.87 (mean 2.27; controls 2 of 9).
For S38R/A57Q, the assay gave nd, 3.76, nd (controls 4 of 9).
For S38A/Q95L/S103I, the assay gave nd, nd, nd (controls 2 of 9).
For K24C/R34F/S38Y, the assay gave 4.35, 5.17, nd (mean 4.76; controls 3 of 9).
For S25C/L30N/S38L, the assay gave 3.37, 3.45, 4.33 (mean 3.72; controls 5 of 9).
For S38Q/H98R/S103L, the assay gave 3.46, nd, nd (controls 2 of 9).
For S38I/E61G/L100N, the assay gave nd, nd, nd (controls 0 of 9).
For S38T/Q95R/Y97M, the assay gave 4.31, nd, 3.91 (mean 4.11; controls 3 of 9).
For Q27T/E32W/S38N, the assay gave 1.07, 1.08, 1.15 (mean 1.10; controls 2 of 9).
For L30V/S33I/S38P, the assay gave 2.79, 2.52, 2.38 (mean 2.56; controls 4 of 9).
For S38M, the assay gave nd, 2.93, nd (controls 1 of 9).
For Y31H/S38Y/E61P, the assay gave nd, nd, 3.80 (controls 0 of 9).
For E32V/S38K, the assay gave nd, nd, nd (controls 0 of 9).
For E32C/S38Q/W56M, the assay gave 3.64, 2.45, nd (mean 3.04; controls 0 of 9).
For S25R/S38G/L100E, the assay gave 6.06, 5.26, nd (mean 5.66; controls 6 of 9).
For R34V/S38G/R99N, the assay gave 1.32, 1.16, 1.31 (mean 1.26; controls 1 of 9).
For S38P/S62V, the assay gave 2.34, 2.28, 2.37 (mean 2.33; controls 2 of 9).
For L30K/S38V, the assay gave nd, 2.83, nd (controls 0 of 9).
For R34G/S38M, the assay gave 0.93, 1.26, 1.29 (mean 1.16; controls 2 of 9).
For S26G/E32H/S38Y, the assay gave nd, nd, nd (controls 0 of 9).
For S38W/W56F, the assay gave 4.19, 3.72, nd (mean 3.96; controls 0 of 9).
For V29T/S38E/S62P, the assay gave 1.23, 1.28, 1.50 (mean 1.34; controls 1 of 9).
For E32R/S38K/Q96S, the assay gave nd, nd, nd (controls 0 of 9).
For S38A/H98C/S103H, the assay gave 1.04, 1.32, 1.08 (mean 1.15; controls 3 of 9).

Extract of 5 entries:

For S38R/A57Q, the assay gave nd, 3.76, nd (controls 4 of 9).
For R34V/S38G/R99N, the assay gave 1.32, 1.16, 1.31 (mean 1.26; controls 1 of 9).
For S38L/A57K/S103Q, the assay gave nd, nd, nd (controls 0 of 9).
For Q27K/N37M/S38I, the assay gave 4.41, nd, nd (controls 2 of 9).
For L30D/S38Y/P101M, the assay gave 2.63, 3.71, 3.08 (mean 3.14; controls 0 of 9).

Empty control strains, which show no peptide, gave a signal in 18% of pairings with library AAYL50; the median was 4.19 and 95% of these signals were weaker than 2.99. No background was subtracted. The control count says in how many pairings with the empty strains this scFv gave a signal. For reference, the parent read 0.65 as the reference entry and 1.68 as a member of this library.

Source: Engelhart et al. 2022 (doi:10.1038/s41597-022-01779-4), MIT Lincoln Laboratory and A-Alpha Bio; data file from the FLAb repository.